# Assay results taken from paper PMC11624193, “Coupling cellular drug-target engagement to downstream pharmacology with CeTEAM” (Nature Communications, 2024).
# The chains behind the UniProt entries cited, without tags or fusion partners. Residues count along the entry.
# UniProt P09874, 2-1014 L713F: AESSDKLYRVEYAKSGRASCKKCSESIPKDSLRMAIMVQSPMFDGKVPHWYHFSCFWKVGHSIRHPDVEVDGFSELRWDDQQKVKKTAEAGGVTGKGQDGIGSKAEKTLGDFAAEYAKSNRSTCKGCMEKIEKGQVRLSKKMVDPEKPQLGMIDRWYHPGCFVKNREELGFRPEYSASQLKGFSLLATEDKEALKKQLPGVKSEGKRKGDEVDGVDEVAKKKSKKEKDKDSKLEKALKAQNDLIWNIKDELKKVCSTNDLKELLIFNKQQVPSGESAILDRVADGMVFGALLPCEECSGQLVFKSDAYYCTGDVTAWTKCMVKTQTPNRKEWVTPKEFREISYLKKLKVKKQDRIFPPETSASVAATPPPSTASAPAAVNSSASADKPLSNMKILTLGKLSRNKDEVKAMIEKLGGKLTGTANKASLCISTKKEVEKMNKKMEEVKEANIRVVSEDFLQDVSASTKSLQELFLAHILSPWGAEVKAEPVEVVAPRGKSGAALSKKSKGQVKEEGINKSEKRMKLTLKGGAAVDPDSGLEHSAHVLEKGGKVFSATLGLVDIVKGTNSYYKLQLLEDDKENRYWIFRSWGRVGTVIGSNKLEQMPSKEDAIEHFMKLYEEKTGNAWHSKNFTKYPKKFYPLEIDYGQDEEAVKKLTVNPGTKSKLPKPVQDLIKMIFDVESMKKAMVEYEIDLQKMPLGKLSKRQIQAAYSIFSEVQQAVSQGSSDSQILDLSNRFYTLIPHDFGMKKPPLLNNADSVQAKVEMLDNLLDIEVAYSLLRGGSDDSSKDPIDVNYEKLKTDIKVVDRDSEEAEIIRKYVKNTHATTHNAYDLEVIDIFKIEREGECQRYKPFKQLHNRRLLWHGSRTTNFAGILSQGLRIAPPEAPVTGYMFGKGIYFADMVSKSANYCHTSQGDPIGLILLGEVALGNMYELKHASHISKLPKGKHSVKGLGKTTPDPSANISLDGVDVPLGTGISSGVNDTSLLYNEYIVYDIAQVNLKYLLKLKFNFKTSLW
# Biological target: PARP1 (Homo sapiens, UniProt P09874, L713F)
structure (smiles),measurement,value
Cn1ncnc1[C@H]1c2n[nH]c(=O)c3cc(F)cc(c23)N[C@@H]1c1ccc(F)cc1 [talazoparib],EC50,"Notably, talazoparib was the most potent binder and trapper followed by olaparib and niraparib"
